Activity calls are given as the source filed them.
Columns and labels:
[1] = biological target: Kappa-type opioid receptor (Homo sapiens) (UniProt P41145); test: Displacement of [3H]-U69593 from human kappa opioid receptor expressed in CHO cells at 1 uM incubated for 30 mins by liquid scintillation counting method relative to control
[2] = biological target: Mu-type opioid receptor (Rattus norvegicus) (UniProt P33535); test: Displacement of [3H]-DAMGO from rat mu opioid receptor expressed in CHO cells at 1 uM incubated for 30 mins by liquid scintillation counting method relative to control
[3] = biological target: Delta-type opioid receptor (Rattus norvegicus) (UniProt P33533); test: Displacement of [3H]-DPDPE from rat delta opioid receptor expressed in CHO cells at 1 uM incubated for 30 mins by liquid scintillation counting method relative to control
Mus musculus [4] = test: Antinociceptive activity in Kunming mouse assessed as maximum possible effect by measuring latency threshold at 5 mg/kg, ip in presence of naloxone by hot plate test
Mus musculus [5] = test: Antinociceptive activity in ip dosed Kunming mouse assessed as maximum possible effect by measuring latency threshold by hot plate test
Mus musculus [6] = test: Antinociceptive activity in Kunming mouse assessed as maximum possible effect by measuring latency threshold at 5 mg/kg, ip by hot plate test
[7] = biological target: Mu-type opioid receptor (Rattus norvegicus) (UniProt P33535); test: Agonist activity at rat mu opioid receptor expressed in CHO cells incubated for 1 hr by [35S]GTPgammaS binding based liquid scintillation counting method relative to control
[8] = biological target: Delta-type opioid receptor (Rattus norvegicus) (UniProt P33533); test: Agonist activity at rat delta opioid receptor expressed in CHO cells incubated for 1 hr by [35S]GTPgammaS binding based liquid scintillation counting method relative to control
[9] = biological target: Kappa-type opioid receptor (Homo sapiens) (UniProt P41145); test: Agonist activity at human kappa opioid receptor expressed in CHO cells incubated for 1 hr by [35S]GTPgammaS binding based liquid scintillation counting method relative to control
[10] = Selectivity index, ratio of Ki for human kappa opioid receptor expressed in CHO cells to rat mu opioid receptor expressed in CHO cells
Rattus norvegicus = species on record: Rattus norvegicus; test: Selectivity index, ratio of Ki for rat delta opioid receptor expressed in CHO cells to rat mu opioid receptor expressed in CHO cells

Amino acid sequences for entries named in this document (tags omitted). A change or cut given only in a name is not applied to a line headed by its entry.
UniProt P41145: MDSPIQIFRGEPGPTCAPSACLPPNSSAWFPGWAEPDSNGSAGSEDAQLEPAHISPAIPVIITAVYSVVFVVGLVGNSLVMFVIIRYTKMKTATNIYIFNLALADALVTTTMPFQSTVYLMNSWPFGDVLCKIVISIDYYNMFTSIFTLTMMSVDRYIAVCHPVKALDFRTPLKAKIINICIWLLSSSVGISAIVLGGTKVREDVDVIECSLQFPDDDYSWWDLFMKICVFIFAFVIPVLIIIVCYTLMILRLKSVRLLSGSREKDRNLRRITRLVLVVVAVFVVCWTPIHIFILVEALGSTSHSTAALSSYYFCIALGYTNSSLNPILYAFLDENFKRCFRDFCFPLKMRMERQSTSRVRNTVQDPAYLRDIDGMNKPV
UniProt P33535, whole entry, looked up: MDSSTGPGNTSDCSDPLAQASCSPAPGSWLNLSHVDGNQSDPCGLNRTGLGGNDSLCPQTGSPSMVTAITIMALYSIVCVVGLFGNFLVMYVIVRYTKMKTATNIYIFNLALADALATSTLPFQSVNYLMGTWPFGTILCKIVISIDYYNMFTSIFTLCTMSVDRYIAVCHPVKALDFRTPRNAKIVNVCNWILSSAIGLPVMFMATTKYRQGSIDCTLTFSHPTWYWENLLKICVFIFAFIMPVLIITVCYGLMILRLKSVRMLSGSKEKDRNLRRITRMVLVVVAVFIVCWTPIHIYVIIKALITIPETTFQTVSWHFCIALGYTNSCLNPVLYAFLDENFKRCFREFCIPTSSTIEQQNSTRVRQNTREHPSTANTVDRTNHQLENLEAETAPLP
UniProt P33533, whole entry, looked up: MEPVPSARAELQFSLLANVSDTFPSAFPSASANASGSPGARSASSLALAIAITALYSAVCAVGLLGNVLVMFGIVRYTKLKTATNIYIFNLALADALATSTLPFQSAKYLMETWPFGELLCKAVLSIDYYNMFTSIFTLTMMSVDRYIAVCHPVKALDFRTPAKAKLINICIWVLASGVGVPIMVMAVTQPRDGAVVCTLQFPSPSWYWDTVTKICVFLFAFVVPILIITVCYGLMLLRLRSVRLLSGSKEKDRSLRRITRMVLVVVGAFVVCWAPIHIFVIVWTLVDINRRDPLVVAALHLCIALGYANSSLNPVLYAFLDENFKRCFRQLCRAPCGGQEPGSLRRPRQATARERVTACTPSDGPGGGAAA

| Compound | inhibition [1] [%] | inhibition [2] [%] | inhibition [3] [%] | further results |
| --- | --- | --- | --- | --- |
| CN(C)CC1CN(C(=O)Nc2ccc(F)c(Cl)c2)CCC1(O)c1ccccc1 (stereo not given) | 7.1 | 25 | 21.6 | – |
| CN(C)CC1CN(C(=O)NC23CC4CC(CC(O)(C4)C2)C3)CCC1(O)c1ccccc1 (stereo not given) | 0 | 0 | 1.9 | – |
| CN(C)CC1CN(C(=O)Nc2cc(Cl)c(Cl)c(Cl)c2)CCC1(O)c1ccccc1 (stereo not given) | 0 | 13.2 | 0 | – |
| CN(C)CC1CN(C(=O)Nc2ccccc2)CCC1(O)c1ccccc1 (stereo not given) | – | – | – | Activity (Mus musculus [4]): inactive; Activity (Mus musculus [5]): Dose-dependent effect; Activity (Mus musculus [6]): Active |
| CN(C)CC1CN(C(=O)Nc2ccc(Cl)c(Cl)c2)CCC1(O)c1ccccc1 (stereo not given) | 18.2 | 46 | 0 | – |
| COC(=O)c1sccc1NC(=O)N1CCC(O)(c2ccccc2)C(CN(C)C)C1 (stereo not given) | 0 | 10.2 | 0 | – |
| CN(C)CC1CN(C(=O)Nc2cc(C(F)(F)F)cc(C(F)(F)F)c2)CCC1(O)c1ccccc1 (stereo not given) | 8.6 | 0 | 0.9 | – |
| CN(C(=O)Cc1ccc(Cl)c(Cl)c1)C1CCCCC1N1CCCC1 (stereo not given) | – | – | – | Emax [7]: inactive; Emax [8]: inactive; Emax ([9]; filed as agonist): 200% |
| CN(C)CC1CN(C(=O)N(C)c2cccc(Cl)c2)CCC1(O)c1ccccc1 (stereo not given) | 14 | 8.7 | 0 | – |
| CN(C)CC1CN(C(=O)Nc2ccc(Cl)cc2)CCC1(O)c1ccccc1 (stereo not given) | 22.1 | 48.8 | 0 | – |
| COC(=O)c1ccsc1NC(=O)N1CCC(O)(c2ccccc2)C(CN(C)C)C1 (stereo not given) | 9.2 | 2.3 | 16 | – |
| CN(C)C[C@H]1CCCC[C@]1(O)c1cccc(O)c1 | 20.2 | – | 19 | Emax ([7]; filed as agonist): 226%; Emax [8]: inactive; Emax [9]: inactive |
| CC1(C)SSC(C)(C)[C@@H](NC(=O)[C@@H](N)Cc2ccc(O)cc2)C(=O)NCC(=O)N[C@@H](Cc2ccccc2)C(=O)N[C@H]1C(=O)O | – | – | – | Emax [9]: inactive |
| COc1cccc([C@@]2(O)CCCC[C@@H]2CN(C)C)c1 | 0 | 6 | 0 | – |
| C[C@H](NC(=O)N1CCC(O)(c2ccccc2)C(CN(C)C)C1)c1ccccc1 (stereo not given in full) | 4.1 | 20.5 | 0 | – |
| CN(C)CC1CN(C(=O)Nc2ccc3ccccc3c2)CCC1(O)c1ccccc1 (stereo not given) | 3.9 | 0.5 | 0 | – |
| CN(C)CC1CN(C(=O)Nc2cccc(F)c2)CCC1(O)c1ccccc1 (stereo not given) | 0 | 36.7 | 9.2 | – |
| CN(C)CC1CN(C(=O)NCc2ccccc2)CCC1(O)c1ccccc1 (stereo not given) | 5.1 | 35.1 | 2.6 | – |
| C[C@@H](NC(=O)[C@@H](N)Cc1ccc(O)cc1)C(=O)NCC(=O)N(C)[C@@H](Cc1ccccc1)C(=O)NCCO | – | – | – | Emax [8]: inactive; Emax [9]: inactive |
| CN(C)CC1CN(C(=O)Nc2ccc(F)c(F)c2)CCC1(O)c1ccccc1 (stereo not given) | 0 | 13.6 | 16.4 | – |
| CN(C)CC1CN(C(=O)NC23CC4CC(CC(C4)C2)C3)CCC1(O)c1ccccc1 (stereo not given) | 17.9 | 13.5 | 0 | – |
| CC(NC(=O)N1CCC(O)(c2ccccc2)C(CN(C)C)C1)C12CC3CC(CC(C3)C1)C2 (stereo not given) | 10.4 | 32.8 | 0 | – |
| CN(C)CC1CN(C(=O)Nc2ccccc2)CCC1(O)c1cccc(O)c1 (stereo not given) | – | – | – | Ratio Ki [10]: 59.5; Emax ([7]; filed as agonist): 240%; Emax ([8]; filed as agonist): 254%; Ratio Ki (Rattus norvegicus): 86.3; Emax ([9]; filed as agonist): 197% |
